The values below come from publication PMC12064818, “A general assay platform to study protein pharmacology using ligand-dependent structural dynamics” (Nature Communications, 2025).

Protein sequences, listed by entry. Tags and fused reporters are not part of them. Residues count along the entry.
UniProt P00519, 233-500 limits assumed: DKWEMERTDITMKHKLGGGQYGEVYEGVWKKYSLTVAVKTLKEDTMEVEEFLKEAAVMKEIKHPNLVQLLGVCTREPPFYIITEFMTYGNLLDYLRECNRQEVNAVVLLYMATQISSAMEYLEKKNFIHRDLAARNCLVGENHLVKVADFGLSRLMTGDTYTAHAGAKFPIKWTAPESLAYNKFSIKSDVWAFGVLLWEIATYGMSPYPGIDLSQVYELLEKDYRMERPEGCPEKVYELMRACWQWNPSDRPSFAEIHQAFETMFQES

The term IC50 denotes the concentration that inhibits the measured activity by half. Read a low IC50 as inhibition by little substance.

The target in assay [1] is T1, ABL1-N-HiBiT kinase domain (Homo sapiens, UniProt P00519). Particulars: for ABL1 KGP pIC50: ABL1, Kinase-Glo Plus (KGP), heatmap data, 128 kinase inhibitors. (In Kinase-Glo more light means more ATP remaining.)
In assay [2] the target is T1, ABL1-N-HiBiT kinase domain. Put plainly: SDR assay, ABL1-N-HiBiT. Particulars: for SDR Ave Max Response / EC50: ABL1-N-HiBiT qHTS; for SDR Ave Max Response: average maximal SDR response; for EC50: read-out: SDR Ave SDR50, average, unit inferred.
A further assay has as its system PKA. As to conditions: annotation yes/no for kinase library compound; source not given; cited from earlier work.
A further assay has as its target PKA-N-HiBiT (Homo sapiens, UniProt P17612). Briefly: SDR assay, PKA-N-HiBiT. As to conditions: without ATP. For orientation: The HiBiT peptide binds its large partner to form an active luciferase.

Consider `Cc1cc(Nc2ncc3cc(-c4c(Cl)cccc4Cl)c(=O)n(C)c3n2)ccc1F` [PD 180970], for which, in assay [1], the IC50 amounted to 36.3 nM and the “ABL1 KGP pIC50” value was determined as 7.47. Further, the “ABL1 SDR pSDR50” value in assay [2] (ABL1, SDR, heatmap data, 128 kinase inhibitors) was found to be 8.19. For the same molecule, in assay [2], the SDR Ave Max Response is 72.3% and the EC50 amounted to 6.44 nM.

Regarding `CNS(=O)(=O)c1ccc2c(c1)/C(=C/c1[nH]c3c(c1CCCN1CCN(C)CC1)CCCC3)C(=O)N2`, the “Annotated PKA activity” value with PKA is recorded as “no”. Further, the “PKA SDR Assay Mean (pSDR50)” value on PKA-N-HiBiT came out at 4.36. For the same molecule, in assay [2], the SDR Ave Max Response is 131%.

Molecule `Cc1cc(-c2cc(O)ccc2Cl)cc2nnc(Nc3ccc(OCCN4CCCC4)cc3)nc12` yielded an SDR Ave Max Response in assay [2] of 81.4%.

Regarding `Nc1ncnc2c1c(-c1ccc(Oc3ccccc3)cc1)cn2C1CCCC1`, the “Annotated PKA activity” value in the assay with PKA was “no”.

Take `CCCCNc1ncc2c(-c3ccc(S(=O)(=O)N4CCOCC4)cc3)nn(C3CCC(O)CC3)c2n1` (stereo not shown): the “ABL1 KGP pIC50” value in assay [1] worked out at 5.41. Further, in the assay with PKA, the “Annotated PKA activity” value was “no”. In assay [2], the SDR Ave Max Response was found to be 76.3% and the EC50 turned out to be 2070 nM.

Take `Oc1ccc(-c2ccc(-c3cc(Nc4cccc(CNC5CC5)c4)[nH]n3)cc2)c(O)c1`: in the assay with PKA, the “Annotated PKA activity” value was “no”. The molecule further returned an SDR Ave Max Response in assay [2] of 36.2%.
